This is an account of results in patent publication US10682430B2, “Alpha-emitting complexes” (BAYER AS, priority 2010, dated 2020).

The test system of data set [1] is SK-OV-3 cells. Put plainly: Determining the immunoreactive fraction (quality control of labeled conjugate). The conditions noted are these: fixed SK-OV-3 cells, 37° C., 2.5 hours; IRF = total binding − unspecific binding.
For data set [2], the system named is SK-OV-3 cells. Put plainly: Cytotoxicity: luminescence (ATP, Cell Titer-Glo) measurement of metabolic activity. It counts as cell-based. The conditions noted are these: 20 kBq/mL (10166 Bq/μg), 1 hour exposure. Background: In ATP-based viability assays light output follows the ATP content of the culture.
Another data set deals with SK-OV-3 xenografts. Particulars: 15 kBq i.v. (2700 Bq/μg).
The subject of data set [3] is SK-OV-3 cells. In words: Assessment of binding over time (^227Th-activity on cell pellets over 7 days). In kind it is cell-based.
Setting [4] is: 700 kBq added, after 1 hour incubation.

Turning to “Batch B: batch of ^227Th-ALG-DD-NCS-trastuzumab, specific activity 2 700 Bq/μg, used in Example 10”, the “Average IRF” value with SK-OV-3 cells [1] amounted to 60%.
With “^227Th-ALG-DD-NCS-trastuzumab: ALG-DD-NCS chelator conjugated to monoclonal antibody trastuzumab and labeled with thorium-227”, the “cell state at day nine” value with SK-OV-3 cells [2] was “almost all cells were dead”. Besides, in the data set with SK-OV-3 xenografts (24 h), the “uptake in skull and femur” value is given as 2.8-3.2%. Besides, the concentration in blood entry in the data set with SK-OV-3 xenografts (4 days) was “around 1 % ID/g”. For the same substance, in the data set on SK-OV-3 cells [3] (setting [4]), the “^227Th-activity on the cell pellet” value is given as 77 kBq and the “^227Th-activity on the cell pellet as share of added activity” value was 11%. Besides, the “binding/retention on SK-OV-3 cells (conclusion)” value in the data set on SK-OV-3 cells [3] (over 7 days) is “efficiently retained”.
